The test system of this assay is laccase. As to the kind of experiment: inhibition kinetics of purified laccase, Lineweaver-Burk.

Structures are written as SMILES. pKi: −log10 of the molar value.

Regarding `[N-]=[N+]=N`, the pKi is 4.78.

A word on the pKi: it is the negative decadic logarithm of the Ki, by convention in mol/L.

Values taken from PMC3909575, “Purification and characterization of an extracellular laccase from solid-state culture of Pleurotus ostreatus HP-1” (2013).
